Source: US4299830A, “1,5-Methano-1,4-benzodiazocines, intermediates therefor, and method of use and compositions thereof” (Sterling Drug Inc., priority 1980, dated 1981)

Assay: Tail-flick Agonist Test
Type: in vivo
Details: rats; no ED50 calculable

Structure (SMILES): Nc1ccc2c(c1)N1CCN(CC3CC3)C(C2)C1 (racemic) [Example 1D, 4-cyclopropylmethyl-9-amino-3,4,5,6-tetrahydro-2H-1,5-methano-1,4-benzodiazocine]
- separation of agonist and toxic effects: none showed sufficient separation of agonist and toxic effects

Structure (SMILES): CCS(=O)(=O)O.CCS(=O)(=O)O.Nc1ccc2c(c1)N1CCN(CC3CC3)C(C2)C1 (stereo not shown) [Example 1E, 4-cyclopropylmethyl-9-amino-3,4,5,6-tetrahydro-2H-1,5-methano-1,4-benzodiazocine diethanesulfonate]
- separation of agonist and toxic effects: none showed sufficient separation of agonist and toxic effects

Structure (SMILES): CCNc1ccc2c(c1)N1CCN(CC3CC3)C(C2)C1.Cl.Cl (stereo not shown) [Example 3B, 4-cyclopropylmethyl-9-ethylamino-3,4,5,6-tetrahydro-2H-1,5-methano-1,4-benzodiazocine dihydrochloride]
- separation of agonist and toxic effects: none showed sufficient separation of agonist and toxic effects

Structure (SMILES): CCCCNc1ccc2c(c1)N1CCN(CC3CC3)C(C2)C1 (stereo not shown) [Example 4B, 4-cyclopropylmethyl-9-butylamino-3,4,5,6-tetrahydro-2H-1,5-methano-1,4-benzodiazocine]
- separation of agonist and toxic effects: none showed sufficient separation of agonist and toxic effects
